## Reported melting point values for industrial, environmental and drug-like chemicals

Source: data files of OPERA 2.9 (Mansouri et al.), github.com/kmansouri/OPERA.

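These are experimental values that the OPERA curators gathered from public databases to train and test their QSAR models. One number stands for a compound and property, with no spread given. How each value was measured is not recorded, so precision varies. Where a salt, mixture or single isomer is drawn, the source does not say that exactly this form was tested. Some entries may be limits or estimates that an upstream database listed as plain numbers.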

The melting point is given in degrees Celsius.
"n/a" marks a cell with nothing listed here.

| SMILES | name | melting point (°C) |
|---|---|---|
| O=C(O)CNC(=O)c1ccc(C(=O)NCC(=O)O)cc1 | N,N'-(1,4-Phenylenedicarbonyl)diglycine | 262 |
| O=C(c1cc2ccccc2cc1O)N1CCOCC1 | 3-(morpholin-4-ylcarbonyl)-2-naphthol | 217 |
| O=C(O)c1ccccc1Nc1ccc(SC(F)F)cc1 | Anthranilic acid, N-(p-((difluoromethyl)thio)phenyl)- | 117 |
| COc1ccc(C(=O)N(NC(=O)c2ccccc2)C(C)(C)C)cc1OC | N'-Benzoyl-N-tert-butyl-3,4-dimethoxybenzohydrazide | 206 |
| Cc1nc(C=O)c2ccccn12 | 3-methylimidazo[1,5-a]pyridine-1-carbaldehyde | 116 |
| ClCc1cnn(-c2ccccc2)c1 | 4-(chloromethyl)-1-phenyl-1H-pyrazole | 67 |
| C#CC(C)N(C)C(=O)Nc1ccc(Cl)cc1 (stereo unspecified) | Buturon | 143 |
| CC1=NN(c2ccccc2)C(=O)C1N=Nc1ccc(C)cc1C (stereo unspecified) | C.I. Solvent Yellow 18 | 169.8 |
| Nc1sc2c(c1C(=O)c1ccccc1)CCCC2 | n/a | 125 |
| CN(C)CCN1C(=O)c2ccccc2N(C)c2ccccc21.Cl | Dibenzepin hydrochloride | 237 |
| Cn1c(Cc2ccccc2)n[nH]c1=S | 5-benzyl-4-methyl-4H-1,2,4-triazole-3-thiol | 159 |
| Nc1nnc(C2CC2)o1 | 5-Cyclopropyl-1,3,4-oxadiazol-2-amine | 171 |
| O=S(=O)(Cl)c1ccc(Cl)cc1C(F)(F)F | 4-Chloro-2-(trifluoromethyl)benzene-1-sulfonyl chloride | 46 |
| CS(=O)(=O)c1nn2ccccc2c1[N+](=O)[O-] | 2-(Methylsulfonyl)-3-nitropyrazolo[1,5-a]pyridine | 181 |
| Cc1ccc(OCC(=O)O)c(Br)c1 | (2-bromo-4-methylphenoxy)acetic acid | 131 |
| CN(C)CCN(Cc1cccs1)c1ccccn1.Cl | Methapyrilene hydrochloride | 162.2 |
| Cc1cc(C)n(-c2ccc(S(N)(=O)=O)cc2)n1 | 4-(3,5-Dimethyl-1H-pyrazol-1-yl)benzene-1-sulfonamide | 244 |
| C[C@@H]1O[C@@H](Oc2c(-c3cc(O)c(O)c(O)c3)oc3cc(O)cc(O)c3c2=O)[C@H](O)[C@H](O)[C@H]1O | Myricitrin | 195.5 |
| O=C(O)Cc1cc(=O)n(-c2ccccn2)[nH]1 | n/a | 99 |
| Cc1ccc2nc(-c3ccc(N=C=S)cc3)sc2c1 | 2-(4-Isothiocyanatophenyl)-6-methyl-1,3-benzothiazole | 244 |
| CNC(=O)c1cccc(N)c1C | 3-Amino-N,2-dimethylbenzamide | 179 |
| Cc1cc(Br)cc(C)c1C#N | 4-bromo-2,6-dimethylbenzonitrile | 69 |
| O=C(O)c1ccccc1OCc1ccccc1Cl | 2-[(2-chlorobenzyl)oxy]benzoic acid | 120 |
| Cc1ccc(C)n1-c1ccc(N)cc1 | 4-(2,5-dimethyl-1H-pyrrol-1-yl)aniline | 94 |
| O=[N+]([O-])c1cc(Cl)ccc1S(=O)(=O)Cl | 4-Chloro-2-nitrophenylsulphonyl chloride | 75 |
| COC(=O)c1c(-c2ccc(F)cc2)csc1N | methyl 2-amino-4-(4-fluorophenyl)thiophene-3-carboxylate | 136 |
| CCOC(=O)Nc1ccc(N)cc1 | Ethyl (4-aminophenyl)carbamate | 74 |
| O=C(O)CNC(=O)C(F)(F)F | N-(Trifluoroacetyl)aminoacetic acid | 153 |
| Nc1ccc(OCc2ccccc2)nc1 | 6-(benzyloxy)pyridin-3-amine | 43 |
| O=Cc1ccc(OCc2ccccn2)cc1 | 4-(pyridin-2-ylmethoxy)benzaldehyde | 89 |
| CCOC(=O)Cc1nc2ccccc2[nH]1 | Ethyl (1H-benzimidazol-2-yl)acetate | 180 |
| CCc1nc2ccccc2c(C(=O)O)c1C | 2-Ethyl-3-methyl-quinoline-4-carboxylic acid | 191 |
| O=P([O-])(O)CCC(F)(F)C(F)(F)C(F)(F)C(F)(F)C(F)(F)C(F)(F)F.[Na+] | Sodium hydrogen ((perfluorohexyl)ethyl)phosphonate | 287 |
| CCOC(=O)c1cnoc1N | Ethyl 5-amino-1,2-oxazole-4-carboxylate | 17 |
| CNc1nc(CC(C)=O)ns1 | 1-[5-(Methylamino)-1,2,4-thiadiazol-3-yl]propan-2-one | 299 |
| CCOC(=O)c1oc2ccccc2c1CBr | Ethyl 3-(bromomethyl)-1-benzofuran-2-carboxylate | 78 |
| O=[N+]([O-])c1ccc2ccc3c4ccccc4cc4ccc1c2c43 | 3-Nitrobenzo(a)pyrene | 211.5 |
| O=C/C=C/[O-].[Na+] | Malonaldehyde, sodium salt | 111.1 |
| CCOc1ccc(O)c(C=O)c1 | 5-ethoxy-2-hydroxybenzaldehyde | 50 |
| O=C(CCl)NC(=O)OCc1ccccc1 | benzyl chloroacetylcarbamate | 114 |
| Cc1sc(-n2cccc2)c(C(=O)O)c1C | 4,5-Dimethyl-2-(1H-pyrrol-1-yl)thiophene-3-carboxylic acid | 157 |
| CCCCn1nc(C(=O)O)ccc1=O | 1-butyl-6-oxo-1,6-dihydropyridazine-3-carboxylic acid | 120 |
| Cc1cc(-c2ccccc2)nc(=S)[nH]1 | 4-methyl-6-phenylpyrimidine-2-thiol | 209 |
| CC(C)(C)c1cc(N)n(-c2cccc(Cl)c2)n1 | 3-tert-butyl-1-(3-chlorophenyl)-1H-pyrazol-5-amine | 100 |
| O=C(O)C1=NN(C2CCS(=O)(=O)C2)C(=O)CC1 (stereo unspecified) | n/a | 139 |
| Cn1c(N)c(C(=O)CC#N)c(=O)n(C)c1=O | n/a | 261 |
| CCc1ccc2c(c1)C(=O)C(=O)N2 | 5-Ethyl-1H-indole-2,3-dione | 115 |
| Cc1ccccc1-n1cn[nH]c1=S | 4-(2-methylphenyl)-4H-1,2,4-triazole-3-thiol | 145 |
| OC(Cc1nc2ccccc2o1)c1cccc(C(F)(F)F)c1 (stereo unspecified) | n/a | 88 |
| Cc1ccc(C)c2sc(N)nc12 | 4,7-dimethyl-1,3-benzothiazol-2-amine | 152 |

Excerpt, the opening 8 entries:

SMILES	name	melting point (°C)
O=C(O)CNC(=O)c1ccc(C(=O)NCC(=O)O)cc1	N,N'-(1,4-Phenylenedicarbonyl)diglycine	262
O=C(c1cc2ccccc2cc1O)N1CCOCC1	3-(morpholin-4-ylcarbonyl)-2-naphthol	217
O=C(O)c1ccccc1Nc1ccc(SC(F)F)cc1	Anthranilic acid, N-(p-((difluoromethyl)thio)phenyl)-	117
COc1ccc(C(=O)N(NC(=O)c2ccccc2)C(C)(C)C)cc1OC	N'-Benzoyl-N-tert-butyl-3,4-dimethoxybenzohydrazide	206
Cc1nc(C=O)c2ccccn12	3-methylimidazo[1,5-a]pyridine-1-carbaldehyde	116
ClCc1cnn(-c2ccccc2)c1	4-(chloromethyl)-1-phenyl-1H-pyrazole	67
C#CC(C)N(C)C(=O)Nc1ccc(Cl)cc1 (stereo unspecified)	Buturon	143
CC1=NN(c2ccccc2)C(=O)C1N=Nc1ccc(C)cc1C (stereo unspecified)	C.I. Solvent Yellow 18	169.8